This is an account of results in paper PMC5074076, “Novel minimal physiologically-based model for the prediction of passive tubular reabsorption and renal excretion clearance” (European Journal of Pharmaceutical Sciences, 2016).

The conditions of data set [1]: calculated from pKa and LogD7.4.
Data set [2] in a line: Ionisation classification at pH 6.5 from pKa. To be noted: predominant species (> 50%) at pH 6.5 from measured or calculated pKa.
The conditions of data set [3]: octanol-buffer pH 7.4, shake-flask.
The conditions of data set [4]: healthy subjects; plasma and urine data from same subjects; normalised for subject weight and body surface area where necessary; ref Table S2.1; cited from earlier work.

Regarding Chlorpheniramine, the LogD6.5 in data set [1] is recorded as 0.31. The “Ionisation at pH 6.5” value in data set [2] is reported as “Base”. In data set [3], this substance came in with a LogD7.4 of 1.22.
Turning to Maraviroc, the “Overall weighted mean CLR” value in data set [4] was 177.2 mL/min.
As for Propafenone, the “Ionisation at pH 6.5” value in data set [2] is “Base”.
